Laboratory results published in PMC9795464 (JACS Au, 2022).

Biological target: T1, FXR ligand-binding domain (LBD) (Homo sapiens, UniProt Q96RI1)
T1 sequence (Q96RI1 243-472 isoform Q96RI1-2): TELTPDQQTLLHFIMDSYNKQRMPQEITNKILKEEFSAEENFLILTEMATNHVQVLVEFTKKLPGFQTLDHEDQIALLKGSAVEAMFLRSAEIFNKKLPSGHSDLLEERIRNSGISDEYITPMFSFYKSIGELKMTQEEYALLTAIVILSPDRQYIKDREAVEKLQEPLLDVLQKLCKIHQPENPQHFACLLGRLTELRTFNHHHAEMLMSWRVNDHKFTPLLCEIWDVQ
Experiment: AlphaScreen coactivator recruitment assay
Format: biochemical
Details: gradient GS; OCA 1 μM, FA 10 μM; dose-dependent

Guggulsterone E&Z [GS]
effect on OCA- and FA-induced recruitment of SRC2-3 to FXR: blocked
